22 compounds from patent publication US8969358B2, “Buprenorphine analogs” (dated 2015) can be followed below.

Assay [1] has as its target T1, κ opioid receptor (Homo sapiens (Human), UniProt P41145). Kind of assay: κ-opioid receptor [35S]GTPγS functional assay. The following applies: for EC50: read-out: GTPγS κ EC50; for GTPγS κ Emax: relative to the effect elicited by U69,593.
The target in assay [2] is μ-opioid receptor (Homo sapiens (Human), UniProt P35372). Briefly: μ-opioid receptor [35S]GTPγS functional assay. Conditions: read-out: GTPγS μ EC50; bound given in μM. (In general: GTPγS is a poorly hydrolysed GTP analogue; its binding reports G protein activation.)
In assay [3] the target is T1, κ opioid receptor. Kind of assay: κ-opioid receptor radioligand dose displacement binding assay ([3H]-U69,593). The following applies: read-out: Ki κ; binding affinity.

Read-outs that look alike come from different tables or passages of the source.

As for `COC12CC[C@@]3(C[C@@H]1CNC(=O)CCC(=O)O)[C@H]1Cc4ccc(O)c5c4[C@@]3(CCN1CC1CC1)[C@H]2O5`, in assay [1], the concentration giving a half-maximal response (EC50) – broadly, the midpoint of the concentration-response curve – amounted to 0.0622 µM and the “GTPγS κ Emax” value amounted to 22.25%. Take `CC[C@H](C)[C@H](NC(C)=O)C(=O)NC[C@H]1C[C@@]23CC[C@]1(OC)[C@@H]1Oc4c(O)ccc5c4[C@@]12CCN(CC1CC1)[C@@H]3C5`: the EC50 in assay [1] (bound given in μM) is over 20 µM. With `COC12CC[C@@]3(C[C@@H]1CNC(=O)CCC(N)=O)[C@H]1Cc4ccc(O)c5c4[C@@]3(CCN1CC1CC1)[C@H]2O5`, in assay [1], the EC50 was determined as 0.00919 µM and the “GTPγS κ Emax” value is listed as 26.33%.

As for `CO[C@]12CC[C@@]3(C[C@@H]1CNC(=O)[C@@H]1CCCN1C(C)=O)[C@H]1Cc4ccc(O)c5c4[C@@]3(CCN1CC1CC1)[C@H]2O5`, the concentration for a half-maximal effect (EC50) in assay [1] (bound given in μM) was over 20 µM. For `CO[C@]12CC[C@@]3(C[C@@H]1CNC(=O)[C@H](C)N)[C@H]1Cc4ccc(O)c5c4[C@@]3(CCN1CC1CC1)[C@H]2O5`, in assay [1], the EC50 was 0.00421 µM and the “GTPγS κ Emax” value is 29.33%. Turning to `CO[C@]12CC[C@@]3(C[C@@H]1CNC(=O)[C@H](CC(N)=O)NC(C)=O)[C@H]1Cc4ccc(O)c5c4[C@@]3(CCN1CC1CC1)[C@H]2O5`, in assay [1] (bound given in μM), the EC50 is over 20 µM. Turning to `CO[C@]12CC[C@@]3(C[C@@H]1CNC(=O)[C@@H](N)CC(C)C)[C@H]1Cc4ccc(O)c5c4[C@@]3(CCN1CC1CC1)[C@H]2O5`, in assay [1], the EC50 came to 0.0107 µM and the “GTPγS κ Emax” value amounted to 27.00%. With `CC[C@H](C)[C@H](N)C(=O)NC[C@H]1C[C@@]23CC[C@]1(OC)[C@@H]1Oc4c(O)ccc5c4[C@@]12CCN(CC1CC1)[C@@H]3C5`, the concentration for a half-maximal effect (EC50) in assay [1] (bound given in μM) was over 20 µM. In the case of `CO[C@]12CC[C@@]3(C[C@@H]1CNC(=O)[C@H](C)NC(C)=O)[C@H]1Cc4ccc(O)c5c4[C@@]3(CCN1CC1CC1)[C@H]2O5`, in assay [1], the EC50 is 0.00623 µM and the “GTPγS κ Emax” value turned out to be 25.67%. Consider `CO[C@]12CC[C@@]3(C[C@@H]1CNC(=O)[C@H](CC(C)C)NC(C)=O)[C@H]1Cc4ccc(O)c5c4[C@@]3(CCN1CC1CC1)[C@H]2O5`, for which the half-maximal effective concentration (EC50) in assay [1] (bound given in μM) was over 20 µM.

Turning to `CO[C@]12CC[C@@]3(C[C@@H]1CNC(=O)[C@H](Cc1c[nH]cn1)NC(C)=O)[C@H]1Cc4ccc(O)c5c4[C@@]3(CCN1CC1CC1)[C@H]2O5`, the EC50 in assay [1] (bound given in μM) was over 20 µM. On to `CO[C@]12CC[C@@]3(C[C@@H]1CNC(=O)[C@@H](N)CC(N)=O)[C@H]1Cc4ccc(O)c5c4[C@@]3(CCN1CC1CC1)[C@H]2O5`, for which, in assay [1], the concentration giving a half-maximal response (EC50) was determined as 0.00561 µM and the “GTPγS κ Emax” value turned out to be 16.00%. Regarding `COC12CC[C@@]3(C[C@@H]1CNC(=O)c1nccnc1C(N)=O)[C@H]1Cc4ccc(O)c5c4[C@@]3(CCN1CC1CC1)[C@H]2O5`, the half-maximal effective concentration (EC50) in assay [1] (bound given in μM) is over 20 µM.

Regarding `COc1ccc2c3c1O[C@H]1[C@@]4(OC)CC[C@@]5(C[C@@H]4CNC(=O)[C@H](C)N)[C@@H](C2)N(CC2CC2)CC[C@]315`, in assay [1], the EC50 worked out at 1.61 µM and the “GTPγS κ Emax” value is 36.67%. Further, in assay [2], the EC50 is over 20 µM. Consider `CO[C@]12CC[C@@]3(C[C@@H]1CNC(=O)[C@H](CC(=O)O)NC(C)=O)[C@H]1Cc4ccc(O)c5c4[C@@]3(CCN1CC1CC1)[C@H]2O5`, for which, in assay [1], the EC50 turned out to be 0.058 µM and the “GTPγS κ Emax” value is reported as 14.33%. As to `CO[C@]12CC[C@@]3(C[C@@H]1CNC(=O)CNC(C)=O)[C@H]1Cc4ccc(O)c5c4[C@@]3(CCN1CC1CC1)[C@H]2O5`, in assay [1] (bound given in μM), the EC50 was over 20 µM. In the case of `CO[C@]12CC[C@@]3(C[C@@H]1CNC(=O)[C@@H](N)CO)[C@H]1Cc4ccc(O)c5c4[C@@]3(CCN1CC1CC1)[C@H]2O5`, in assay [1], the EC50 turned out to be 0.00608 µM and the “GTPγS κ Emax” value is 23.50%. In the case of `COC12CC[C@@]3(C[C@@H]1CNC(=O)c1nccnc1C(=O)O)[C@H]1Cc4ccc(O)c5c4[C@@]3(CCN1CC1CC1)[C@H]2O5`, the EC50 in assay [1] (bound given in μM) is over 20 µM. For the compound `COC12CC[C@@]3(C[C@@H]1CNC(=O)CCCCC(=O)O)[C@H]1Cc4ccc(O)c5c4[C@@]3(CCN1CC1CC1)[C@H]2O5`, in assay [1], the EC50 is 0.0576 µM and the “GTPγS κ Emax” value turned out to be 21.00%.

Turning to `COC12CC[C@@]3(C[C@@H]1CNC(=O)CCc1nnn[nH]1)[C@H]1Cc4ccc(O)c5c4[C@@]3(CCN1CC1CC1)[C@H]2O5`, in assay [1], the EC50 was 0.0263 µM and the “GTPγS κ Emax” value came out at 16.67%.

`CO[C@]12CC[C@@]3(C[C@@H]1CNC(=O)[C@@H]1CCCN1)[C@H]1Cc4ccc(O)c5c4[C@@]3(CCN1CC1CC1)[C@H]2O5`: the EC50 in assay [1] was found to be 0.00268 µM. For the same compound, the Ki – broadly, the dissociation constant of the complex between target and ligand, obtained from inhibition or displacement – in assay [3] came to 0.07 nM. For the compound `CO[C@]12CC[C@@]3(C[C@@H]1CNC(=O)[C@H](Cc1ccc(O)cc1)NC(C)=O)[C@H]1Cc4ccc(O)c5c4[C@@]3(CCN1CC1CC1)[C@H]2O5`, in assay [1] (bound given in μM), the EC50 was over 20 µM.
